System: rat primary cortical neuronal culture
Assay: Glutamate neurotoxicity in primary cortical neuronal culture (MAP2 immunocytochemistry)
Details: Glutamate 100 μM; Psilocybin 0.1, 1, 10 μM; DIV10-DIV12; p<0.05, 1-Way ANOVA

CN(C)CCc1c[nH]c2cccc(OP(=O)(O)O)c12 [Psilocybin, 4-phosphoryloxy-N,N-dimethyltryptamine]
Glutamate-mediated reduction of MAP2 immunoreactivity: dose-dependently mitigated this response

— patent publication US20250352563A1, “Method and Use of Psilocybin in the Prevention and Treatment of Stroke” (Revive Therapeutics Ltd, priority 2022, published 2025)
